According to ChEMBL document CHEMBL1773006, “Enone- and chalcone-chloroquinoline hybrid analogues: in silico guided design, synthesis, antiplasmodial activity, in vitro metabolism, and mechanistic studies” (J Med Chem, 2011):

Tests used:
[1] = Ratio of compound IC50 to hematin IC50 for inhibition of beta-hematin formation
[2] = system: Liver; assay: Half life in mouse liver microsomes assessed as compound degradation at 1 uM by LC-MS analysis in presence of NADPH and UDPGA; type: ADME, Microsome

SMILES | Ratio IC50 [1] | t1/2 [2] [h]
Clc1ccc2c(N3CCNCC3)ccnc2c1 | > 5 | 
CCN(CC)CCCC(C)Nc1ccnc2cc(Cl)ccc12 (configuration not stated) [CHLOROQUINE] |  | 2.95
